Laboratory results reported in paper PMC12815673.

Biological target: mGFP-hSERT (human) (UniProt P31645)
Test: single-molecule brightness analysis (TOCCSL, thinning out clusters while conserving stoichiometry of labeling); mGFP-hSERT in the bottom plasma membrane of cells, TIRF, room temperature, 15 s recovery after photobleaching; reports only on mobile molecules; control cells and cells depleted of cholesterol with 10 mM MβCD

Substance: mGFP-hSERT (from UniProt P31645 1-630) (natural protein; other documents disagree on this pair)
- stoichiometry N: < 4
